Results reported in ChEMBL document CHEMBL1152515 (Bioorg Med Chem, 2009).

Amino acid sequences for entries named in this document (tags omitted). A change or cut given only in a name is not applied to a line headed by its entry.
UniProt P32300, whole entry: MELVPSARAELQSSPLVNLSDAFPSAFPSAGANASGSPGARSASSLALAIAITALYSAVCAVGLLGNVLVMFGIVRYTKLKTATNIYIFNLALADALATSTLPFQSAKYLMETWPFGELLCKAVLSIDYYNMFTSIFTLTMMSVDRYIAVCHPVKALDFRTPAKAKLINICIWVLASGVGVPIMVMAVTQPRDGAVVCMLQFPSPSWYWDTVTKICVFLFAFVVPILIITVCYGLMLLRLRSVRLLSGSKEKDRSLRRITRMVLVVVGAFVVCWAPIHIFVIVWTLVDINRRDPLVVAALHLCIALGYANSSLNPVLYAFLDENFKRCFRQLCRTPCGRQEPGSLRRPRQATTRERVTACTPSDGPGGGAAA
UniProt P42866, whole entry: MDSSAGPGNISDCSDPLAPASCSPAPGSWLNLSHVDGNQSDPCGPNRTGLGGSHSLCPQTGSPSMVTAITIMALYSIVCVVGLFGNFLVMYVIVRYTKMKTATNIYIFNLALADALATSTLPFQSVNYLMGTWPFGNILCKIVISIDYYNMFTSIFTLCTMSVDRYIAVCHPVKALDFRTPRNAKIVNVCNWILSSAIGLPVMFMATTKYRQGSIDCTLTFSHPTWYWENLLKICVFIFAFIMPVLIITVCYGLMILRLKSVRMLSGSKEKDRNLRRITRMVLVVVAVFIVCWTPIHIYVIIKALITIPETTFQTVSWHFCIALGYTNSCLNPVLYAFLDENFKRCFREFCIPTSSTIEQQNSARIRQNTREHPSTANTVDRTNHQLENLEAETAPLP
UniProt P28221: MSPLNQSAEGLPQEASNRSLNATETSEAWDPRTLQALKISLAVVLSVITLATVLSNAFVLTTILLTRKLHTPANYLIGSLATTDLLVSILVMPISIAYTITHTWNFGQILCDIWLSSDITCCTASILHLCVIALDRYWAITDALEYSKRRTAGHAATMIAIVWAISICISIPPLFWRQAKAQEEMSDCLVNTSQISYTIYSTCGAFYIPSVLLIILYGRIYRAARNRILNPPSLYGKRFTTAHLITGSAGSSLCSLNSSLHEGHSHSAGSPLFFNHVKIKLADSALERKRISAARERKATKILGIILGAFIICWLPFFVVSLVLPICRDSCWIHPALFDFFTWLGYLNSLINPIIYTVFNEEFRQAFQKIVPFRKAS
UniProt P21728, whole entry: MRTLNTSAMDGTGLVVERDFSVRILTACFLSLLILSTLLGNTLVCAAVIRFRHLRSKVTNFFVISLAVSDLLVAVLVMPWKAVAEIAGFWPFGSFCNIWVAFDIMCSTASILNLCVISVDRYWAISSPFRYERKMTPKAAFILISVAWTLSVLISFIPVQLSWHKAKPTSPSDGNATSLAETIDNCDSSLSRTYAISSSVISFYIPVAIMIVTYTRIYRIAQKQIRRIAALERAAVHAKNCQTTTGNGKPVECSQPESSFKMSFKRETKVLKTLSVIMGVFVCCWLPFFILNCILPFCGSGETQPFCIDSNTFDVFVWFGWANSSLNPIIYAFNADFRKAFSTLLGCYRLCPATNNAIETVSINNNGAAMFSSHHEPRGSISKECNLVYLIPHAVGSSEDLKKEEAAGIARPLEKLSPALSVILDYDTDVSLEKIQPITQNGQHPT
UniProt P35367, whole entry: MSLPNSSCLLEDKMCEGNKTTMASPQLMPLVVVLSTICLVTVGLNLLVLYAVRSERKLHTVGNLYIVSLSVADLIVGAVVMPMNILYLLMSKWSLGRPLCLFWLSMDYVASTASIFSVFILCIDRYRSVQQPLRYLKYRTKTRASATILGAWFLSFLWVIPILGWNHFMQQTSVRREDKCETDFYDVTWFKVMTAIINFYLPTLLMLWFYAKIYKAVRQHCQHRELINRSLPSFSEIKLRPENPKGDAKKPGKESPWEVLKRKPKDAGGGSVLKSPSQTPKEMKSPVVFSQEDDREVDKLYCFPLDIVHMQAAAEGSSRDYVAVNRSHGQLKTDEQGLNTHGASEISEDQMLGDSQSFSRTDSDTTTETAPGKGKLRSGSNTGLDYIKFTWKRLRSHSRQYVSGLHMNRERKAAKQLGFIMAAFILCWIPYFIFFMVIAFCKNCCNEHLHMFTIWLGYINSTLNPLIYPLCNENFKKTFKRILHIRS

Tests used:
[1] = molecular target: Delta-type opioid receptor (Mus musculus, UniProt P32300); assay: Displacement of [3H]bremazocine from mouse delta opioid receptor expressed in HEK293 cells by liquid scintillation counting; format: cell-based
[2] = molecular target: Mu-type opioid receptor (Mus musculus, UniProt P42866); assay: Displacement of [3H]DAMGO from mouse mu opioid receptor expressed in HEK293 cells by liquid scintillation counting; format: cell-based
[3] = molecular target: 5-hydroxytryptamine receptor 1D (Homo sapiens, UniProt P28221); assay: Inhibition of 5HT1D receptor
[4] = molecular target: D(1A) dopamine receptor (Homo sapiens, UniProt P21728); assay: Inhibition of dopamine D1 receptor
[5] = molecular target: Histamine H1 receptor (Homo sapiens, UniProt P35367); assay: Inhibition of histamine H1 receptor

Row | Ki [1] | SMILES | IC50 [2] | IC50 [3] | IC50 [4] | IC50 [5]
1 | 0.46 µM | CN(C)Cc1nnc(-c2ccc(C(C)(C)C)cc2)n1-c1cccc(O)c1 | – | – | – | –
2 | – | CN(C)Cc1nc(-c2ccc(C(C)(C)C)cc2)n(-c2cccc(O)c2)n1 | > 10 µM | > 10 µM | > 10 µM | > 10 µM
